In PubChem BioAssay AID652054 (National Center for Advancing Translational Sciences (NCATS), 2013):
This is a selection; strong and weak results do not stand in their true shares. Records with an inconclusive call do not appear. The source made the active and inactive calls. Rule as the data show it: active = max response below about -50%; inconclusive = no clear call, values can overlap the other calls; inactive = above that.

Chains of the proteins cited; added tags and fusions are not shown.
UniProt P35462, whole entry, looked up: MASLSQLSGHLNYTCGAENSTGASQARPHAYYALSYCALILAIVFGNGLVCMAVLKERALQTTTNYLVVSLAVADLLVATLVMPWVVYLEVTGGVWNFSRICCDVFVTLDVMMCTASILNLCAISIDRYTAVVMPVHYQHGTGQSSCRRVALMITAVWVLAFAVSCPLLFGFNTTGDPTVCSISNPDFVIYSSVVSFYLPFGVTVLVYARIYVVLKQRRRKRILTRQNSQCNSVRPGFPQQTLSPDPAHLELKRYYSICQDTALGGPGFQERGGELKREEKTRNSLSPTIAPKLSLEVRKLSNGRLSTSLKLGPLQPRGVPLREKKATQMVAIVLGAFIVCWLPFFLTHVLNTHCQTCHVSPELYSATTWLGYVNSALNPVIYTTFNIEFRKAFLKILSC

These molecules were tested against D(3) dopamine receptor (Homo sapiens) (UniProt P35462) (assay: qHTS of D3 Dopamine Receptor Antagonist: qHTS). Settings: D3R cells, DiscoveRx beta-arrestin luminescence, antagonist mode; stronger effect = lower value.
Procedure, shortened: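 Cells expressing the human receptor were seeded at 1500 cells/well, incubated overnight at 37 degrees C in 5% CO2, then exposed to library compounds with dopamine controls for 90 minutes at 37 degrees C before luminescent detection.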
% is scaled to controls: 0 for no effect and ±100 for the full control effect.

Question: Which max response, negative = inhibition does the source give for `O=[As](O)(c1cccc(O)c1)c1cccc(O)c1` here?
Answer: inactive: 4.53%

Question: How did the max response, negative = inhibition turn out when `COc1ccccc1CNC(=O)COC(=O)C(O)(c1ccccc1)c1ccccc1` was run?
Answer: inactive: 2%

Question: Which max response, negative = inhibition does the source give for `CC(C)/C=N\N=C(\N)N[N+](=O)[O-]` here?
Answer: inactive: 6.37%

Question: With `CN(C(=O)Cc1ccc(Cl)c(Cl)c1)[C@@H]1CCCC[C@H]1N1CCCC1` as the molecule, how does the max response, negative = inhibition read?
Answer: inactive: 0%

Question: Which max response, negative = inhibition does the source give for `CC1(CBr)Cn2c(nc3ccccc3c2=O)S1` (centres undefined) here?
Answer: inactive: -21.9%

Question: Which max response, negative = inhibition does the source give for `CCOP(=O)(NC(=NC(C)c1ccccc1)NC(C)c1ccccc1)OCC` (centres undefined) here?
Answer: inactive: -0.0553%

Question: Which max response, negative = inhibition does the source give for `O=P1(Nc2ccccn2)COc2ccccc2OC1` here?
Answer: inactive: -6.64%

Question: Which max response, negative = inhibition does the source give for `CCC1=CC2Cc3nc4ccc(Cl)cc4c(N)c3C(C1)C2` (centres undefined) here?
Answer: inactive: 17.2%

Question: For `CCOP(=O)(Nc1ccc(C)cn1)OCC`, which max response, negative = inhibition is on record?
Answer: inactive: -23.4%

Question: Which max response, negative = inhibition does the source give for `CC(C)(C)C(=O)NC(Sc1ncccn1)C(Cl)(Cl)Cl` (centres undefined) here?
Answer: inactive: -0.863%

Question: How did the max response, negative = inhibition turn out when `O=P1(N(CCCl)CCCl)NCCC(C(F)(F)F)O1` (centres undefined) was run?
Answer: inactive: 10.4%

Question: How did the max response, negative = inhibition turn out when `Clc1n[nH]nc1-c1nn[nH][15n]1` was run?
Answer: inactive: -15.2%

Question: For `Cc1ccc(S(=O)(=O)N(CCCN)CCCc2c(C)nc(N)[nH]c2=O)cc1`, which max response, negative = inhibition is on record?
Answer: inactive: 0%

Question: How did the max response, negative = inhibition turn out when `O=P1(Nc2ncccn2)COc2ccccc2OC1` was run?
Answer: inactive: 14.4%

Question: `Nc1cccc([As](=O)(O)c2ccccc2)c1` was tested. Which max response, negative = inhibition did it give?
Answer: inactive: 1.21%

Question: For `O=[As](O)(c1cccs1)c1cccs1`, which max response, negative = inhibition is on record?
Answer: inactive: 36.7%

Question: `Cc1ccc(OCC(=O)OC2CN3CCC2CC3)cc1` (centres undefined) was tested. Which max response, negative = inhibition did it give?
Answer: inactive: -0.0233%

Question: `O=P1(Nc2ccc(Br)cn2)COc2ccccc2OC1` was tested. Which max response, negative = inhibition did it give?
Answer: inactive: 0.129%

Question: With `NS(=O)(=O)c1cccc(NC(=O)COC(=O)C(O)(c2ccccc2)c2ccccc2)c1` as the molecule, how does the max response, negative = inhibition read?
Answer: inactive: 5.96%

Question: `CC1CCC(C(C)C)C(OP(=O)(Nc2ccccn2)c2ccccc2)C1` (centres undefined) was tested. Which max response, negative = inhibition did it give?
Answer: inactive: 12%

Question: With `Cc1ccc(C(=O)OC2CN3CCC2CC3)cc1` (centres undefined) as the molecule, how does the max response, negative = inhibition read?
Answer: inactive: 16.2%

Question: `Cc1nn(-c2ccccc2)c2c1P(=O)(N1CCOCC1)N(C)C(c1ccccc1)=N2` (centres undefined) was tested. Which max response, negative = inhibition did it give?
Answer: inactive: 16.6%

Question: `CN(C)C1(CNC(=O)c2ccc(S(C)(=O)=O)cc2)CCCCC1` was tested. Which max response, negative = inhibition did it give?
Answer: inactive: -3.63%

Question: `CCCC1OP(=O)(Nc2ccccc2)OCC1CC` (centres undefined) was tested. Which max response, negative = inhibition did it give?
Answer: inactive: 5.25%

Question: With `O=C(/C=C/c1ccccc1)OC1CN2CCC1CC2` (centres undefined) as the molecule, how does the max response, negative = inhibition read?
Answer: inactive: 12.1%

Question: For `O=[As](O)(c1ccccc1)c1ccc(O)cc1`, which max response, negative = inhibition is on record?
Answer: inactive: 10%

Question: `O=[N+]([O-])c1ccc(O)c(/C=N/Nc2ccc([N+](=O)[O-])cc2[N+](=O)[O-])c1` was tested. Which max response, negative = inhibition did it give?
Answer: inactive: 17.6%

Question: `O=[N+]([O-])c1ncn(CCn2cnc([N+](=O)[O-])n2)n1` was tested. Which max response, negative = inhibition did it give?
Answer: inactive: -8.84%

Question: `CC(=O)NC(SC(=S)N(C)C)C(Cl)(Cl)Cl` (centres undefined) was tested. Which max response, negative = inhibition did it give?
Answer: inactive: -4.89%
